Values quoted from earlier work, collected in patent US20120202819A1, “COMBINATION THERAPY USING A BETA 3 […] RECEPTOR AGONISTS AND AN […] AGENT” (Merck Sharp & Dohme Corporation, priority 2009, published 2012).

Protein sequences, listed by entry. Tags and fused reporters are not part of them. Lines headed by an entry give the natural chain unless they say otherwise; changes in a name come on top.
UniProt P11229: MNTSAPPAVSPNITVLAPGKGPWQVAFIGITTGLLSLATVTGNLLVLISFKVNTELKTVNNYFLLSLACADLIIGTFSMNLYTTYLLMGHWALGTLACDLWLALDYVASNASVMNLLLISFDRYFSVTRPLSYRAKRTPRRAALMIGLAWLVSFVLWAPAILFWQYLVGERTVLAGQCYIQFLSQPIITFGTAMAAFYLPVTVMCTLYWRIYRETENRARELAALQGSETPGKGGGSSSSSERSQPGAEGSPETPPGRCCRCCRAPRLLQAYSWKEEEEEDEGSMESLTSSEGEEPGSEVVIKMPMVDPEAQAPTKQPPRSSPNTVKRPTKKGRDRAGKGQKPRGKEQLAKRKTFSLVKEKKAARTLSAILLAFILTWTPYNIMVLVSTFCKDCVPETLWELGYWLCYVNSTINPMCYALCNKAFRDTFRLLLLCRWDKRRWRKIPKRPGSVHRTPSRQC

Biological target: muscarinic receptor M1 (Homo sapiens, UniProt P11229)
Details: read-out: Ki (nM) M1; Ohtake et al.; cited from earlier work

SMILES: NC(=O)C(c1ccccc1)(c1ccccc1)[C@@H]1CCN(CCc2ccc3c(c2)CCO3)C1 [Darifenacin, (S)-2-[1-[2-(2,3-dihydrobenzofuran-5-yl)ethyl]pyrrolidin-3-yl]-2,2-diphenyl-acetamide]
- Ki: 31 ± 2.6 nM
